Data published in patent publication US20260384438A1, “PYRROLOPYRIMIDINE CARBOXAMIDES” (published 2026).

Amino acid sequences for entries named in this document (tags omitted). Residues count along the entry.
UniProt P07332, whole entry: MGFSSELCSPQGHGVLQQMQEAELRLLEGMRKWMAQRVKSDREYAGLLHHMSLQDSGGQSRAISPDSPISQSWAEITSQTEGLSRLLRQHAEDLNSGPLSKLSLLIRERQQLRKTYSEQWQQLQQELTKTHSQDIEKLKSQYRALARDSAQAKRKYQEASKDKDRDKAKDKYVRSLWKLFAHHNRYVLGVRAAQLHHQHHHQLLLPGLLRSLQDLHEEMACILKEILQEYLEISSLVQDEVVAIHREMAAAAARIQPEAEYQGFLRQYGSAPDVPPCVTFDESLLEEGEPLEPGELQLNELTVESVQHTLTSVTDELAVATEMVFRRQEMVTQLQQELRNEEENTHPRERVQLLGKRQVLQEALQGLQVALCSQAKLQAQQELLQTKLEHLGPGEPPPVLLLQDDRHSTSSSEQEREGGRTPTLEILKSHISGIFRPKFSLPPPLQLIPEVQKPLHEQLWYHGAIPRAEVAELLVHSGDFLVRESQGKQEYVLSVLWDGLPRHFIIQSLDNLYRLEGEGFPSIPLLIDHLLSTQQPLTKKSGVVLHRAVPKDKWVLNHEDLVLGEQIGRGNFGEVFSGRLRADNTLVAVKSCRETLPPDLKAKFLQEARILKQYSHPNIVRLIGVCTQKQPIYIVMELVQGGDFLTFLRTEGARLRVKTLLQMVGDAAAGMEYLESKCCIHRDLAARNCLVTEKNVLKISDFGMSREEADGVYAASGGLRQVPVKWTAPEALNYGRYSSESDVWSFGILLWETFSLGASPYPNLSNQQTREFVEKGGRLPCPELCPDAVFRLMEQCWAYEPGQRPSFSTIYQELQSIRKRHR
UniProt P08069, 960-1367 limits assumed: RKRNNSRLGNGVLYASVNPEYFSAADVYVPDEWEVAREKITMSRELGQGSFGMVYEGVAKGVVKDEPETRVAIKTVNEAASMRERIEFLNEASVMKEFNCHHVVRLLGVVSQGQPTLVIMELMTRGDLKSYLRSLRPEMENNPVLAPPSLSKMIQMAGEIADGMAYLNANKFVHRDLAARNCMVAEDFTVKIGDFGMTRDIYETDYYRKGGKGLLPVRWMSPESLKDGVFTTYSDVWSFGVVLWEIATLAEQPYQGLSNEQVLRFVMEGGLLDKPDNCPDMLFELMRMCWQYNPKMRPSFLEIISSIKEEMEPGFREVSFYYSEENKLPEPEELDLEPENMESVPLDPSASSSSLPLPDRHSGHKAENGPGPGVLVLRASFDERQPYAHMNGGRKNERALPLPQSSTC
UniProt Q99683, whole entry: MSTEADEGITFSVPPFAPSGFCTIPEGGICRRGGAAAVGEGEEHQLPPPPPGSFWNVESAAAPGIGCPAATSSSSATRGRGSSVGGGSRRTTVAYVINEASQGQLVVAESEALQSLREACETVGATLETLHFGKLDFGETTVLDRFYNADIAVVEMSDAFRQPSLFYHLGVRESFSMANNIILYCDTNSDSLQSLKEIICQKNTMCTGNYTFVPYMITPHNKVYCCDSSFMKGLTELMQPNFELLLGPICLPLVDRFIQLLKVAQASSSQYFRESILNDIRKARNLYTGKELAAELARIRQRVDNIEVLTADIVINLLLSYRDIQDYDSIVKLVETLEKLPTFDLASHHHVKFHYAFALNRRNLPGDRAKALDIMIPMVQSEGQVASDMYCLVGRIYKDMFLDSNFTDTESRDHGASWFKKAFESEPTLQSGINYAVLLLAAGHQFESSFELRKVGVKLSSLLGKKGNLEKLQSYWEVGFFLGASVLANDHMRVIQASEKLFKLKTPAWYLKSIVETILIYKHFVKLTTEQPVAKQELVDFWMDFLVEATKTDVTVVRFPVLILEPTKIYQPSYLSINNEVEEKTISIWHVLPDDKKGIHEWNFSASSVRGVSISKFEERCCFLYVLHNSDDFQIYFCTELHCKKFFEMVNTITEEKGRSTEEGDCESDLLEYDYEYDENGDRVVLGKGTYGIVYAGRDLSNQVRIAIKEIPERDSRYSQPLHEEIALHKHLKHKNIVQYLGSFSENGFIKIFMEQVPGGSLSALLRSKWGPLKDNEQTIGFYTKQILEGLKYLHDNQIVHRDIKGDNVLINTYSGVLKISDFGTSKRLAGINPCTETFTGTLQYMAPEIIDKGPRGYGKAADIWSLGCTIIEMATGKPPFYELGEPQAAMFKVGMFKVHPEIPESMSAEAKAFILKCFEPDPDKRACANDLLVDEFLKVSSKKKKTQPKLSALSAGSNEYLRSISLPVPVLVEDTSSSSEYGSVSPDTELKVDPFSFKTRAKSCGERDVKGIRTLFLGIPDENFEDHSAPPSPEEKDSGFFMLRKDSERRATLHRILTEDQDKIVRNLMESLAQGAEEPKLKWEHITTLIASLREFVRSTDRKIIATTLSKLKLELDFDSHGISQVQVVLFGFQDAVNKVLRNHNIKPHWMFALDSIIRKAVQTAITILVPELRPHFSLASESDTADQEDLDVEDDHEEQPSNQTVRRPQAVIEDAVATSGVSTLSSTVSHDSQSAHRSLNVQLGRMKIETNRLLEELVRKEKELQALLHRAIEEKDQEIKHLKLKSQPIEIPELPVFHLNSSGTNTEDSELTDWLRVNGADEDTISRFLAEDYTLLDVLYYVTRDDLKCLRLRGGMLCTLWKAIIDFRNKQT
UniProt Q8IW41, whole entry: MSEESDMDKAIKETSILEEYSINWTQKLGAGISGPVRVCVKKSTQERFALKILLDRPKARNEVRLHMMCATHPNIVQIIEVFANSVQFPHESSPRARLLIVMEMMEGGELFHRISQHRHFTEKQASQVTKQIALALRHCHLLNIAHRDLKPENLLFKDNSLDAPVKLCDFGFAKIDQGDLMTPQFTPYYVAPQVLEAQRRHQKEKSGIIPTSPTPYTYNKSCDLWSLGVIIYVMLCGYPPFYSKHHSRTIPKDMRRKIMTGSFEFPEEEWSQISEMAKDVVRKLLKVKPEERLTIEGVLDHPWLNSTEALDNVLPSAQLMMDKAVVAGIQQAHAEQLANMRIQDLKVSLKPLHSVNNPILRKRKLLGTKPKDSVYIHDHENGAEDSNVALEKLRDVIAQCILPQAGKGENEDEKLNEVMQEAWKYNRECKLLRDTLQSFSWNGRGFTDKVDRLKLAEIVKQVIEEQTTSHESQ
UniProt Q05397, whole entry: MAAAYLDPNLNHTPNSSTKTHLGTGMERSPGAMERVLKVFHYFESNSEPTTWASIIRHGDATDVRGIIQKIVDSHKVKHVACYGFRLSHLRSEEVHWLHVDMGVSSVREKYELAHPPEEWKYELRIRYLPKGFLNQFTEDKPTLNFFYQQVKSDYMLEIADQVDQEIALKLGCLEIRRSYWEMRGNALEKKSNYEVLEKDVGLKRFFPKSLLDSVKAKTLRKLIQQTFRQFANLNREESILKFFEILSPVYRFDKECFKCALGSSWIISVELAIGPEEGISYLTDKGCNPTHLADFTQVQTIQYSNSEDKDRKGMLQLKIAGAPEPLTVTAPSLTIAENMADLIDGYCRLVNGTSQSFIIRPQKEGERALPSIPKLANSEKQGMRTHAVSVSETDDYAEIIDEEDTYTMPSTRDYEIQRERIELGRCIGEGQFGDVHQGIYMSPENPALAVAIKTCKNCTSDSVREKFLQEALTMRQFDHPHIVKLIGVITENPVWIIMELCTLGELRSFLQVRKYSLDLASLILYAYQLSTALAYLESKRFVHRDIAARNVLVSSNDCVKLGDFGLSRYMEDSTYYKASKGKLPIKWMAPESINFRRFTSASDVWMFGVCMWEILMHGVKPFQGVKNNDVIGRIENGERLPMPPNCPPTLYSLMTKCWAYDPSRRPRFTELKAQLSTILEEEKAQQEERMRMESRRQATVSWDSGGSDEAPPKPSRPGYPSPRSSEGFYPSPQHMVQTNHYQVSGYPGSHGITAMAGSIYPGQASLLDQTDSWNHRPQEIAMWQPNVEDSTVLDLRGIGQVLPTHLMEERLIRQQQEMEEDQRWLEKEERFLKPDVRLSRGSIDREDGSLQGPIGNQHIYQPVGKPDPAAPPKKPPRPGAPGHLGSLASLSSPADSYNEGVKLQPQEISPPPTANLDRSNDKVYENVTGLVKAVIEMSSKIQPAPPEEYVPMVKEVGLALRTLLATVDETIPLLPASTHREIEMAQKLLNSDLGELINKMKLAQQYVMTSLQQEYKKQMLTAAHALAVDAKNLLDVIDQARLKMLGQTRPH
UniProt O94768, whole entry: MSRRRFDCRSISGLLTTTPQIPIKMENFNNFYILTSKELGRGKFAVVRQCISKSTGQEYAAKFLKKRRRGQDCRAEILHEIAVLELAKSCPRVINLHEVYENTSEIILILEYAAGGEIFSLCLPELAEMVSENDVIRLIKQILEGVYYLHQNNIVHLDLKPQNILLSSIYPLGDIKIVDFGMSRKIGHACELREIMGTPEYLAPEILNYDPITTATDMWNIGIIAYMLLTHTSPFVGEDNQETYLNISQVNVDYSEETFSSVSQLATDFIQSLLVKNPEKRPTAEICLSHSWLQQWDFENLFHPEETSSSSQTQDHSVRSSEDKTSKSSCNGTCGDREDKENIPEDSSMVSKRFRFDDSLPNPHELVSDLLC
UniProt Q9BYT3, whole entry: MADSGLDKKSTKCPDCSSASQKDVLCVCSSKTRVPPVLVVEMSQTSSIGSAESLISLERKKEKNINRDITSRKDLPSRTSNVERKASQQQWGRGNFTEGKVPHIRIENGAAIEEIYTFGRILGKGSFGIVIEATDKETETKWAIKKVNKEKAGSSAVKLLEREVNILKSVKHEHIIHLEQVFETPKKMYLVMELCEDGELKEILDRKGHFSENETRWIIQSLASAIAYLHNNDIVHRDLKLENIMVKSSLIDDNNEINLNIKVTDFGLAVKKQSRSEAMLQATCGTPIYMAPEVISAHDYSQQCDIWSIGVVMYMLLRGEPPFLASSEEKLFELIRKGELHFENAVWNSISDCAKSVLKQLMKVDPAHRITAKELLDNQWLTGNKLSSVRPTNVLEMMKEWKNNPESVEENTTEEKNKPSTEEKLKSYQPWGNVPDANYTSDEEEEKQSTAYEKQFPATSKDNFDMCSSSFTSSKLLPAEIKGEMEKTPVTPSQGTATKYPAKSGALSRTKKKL
UniProt Q9NRP7, whole entry: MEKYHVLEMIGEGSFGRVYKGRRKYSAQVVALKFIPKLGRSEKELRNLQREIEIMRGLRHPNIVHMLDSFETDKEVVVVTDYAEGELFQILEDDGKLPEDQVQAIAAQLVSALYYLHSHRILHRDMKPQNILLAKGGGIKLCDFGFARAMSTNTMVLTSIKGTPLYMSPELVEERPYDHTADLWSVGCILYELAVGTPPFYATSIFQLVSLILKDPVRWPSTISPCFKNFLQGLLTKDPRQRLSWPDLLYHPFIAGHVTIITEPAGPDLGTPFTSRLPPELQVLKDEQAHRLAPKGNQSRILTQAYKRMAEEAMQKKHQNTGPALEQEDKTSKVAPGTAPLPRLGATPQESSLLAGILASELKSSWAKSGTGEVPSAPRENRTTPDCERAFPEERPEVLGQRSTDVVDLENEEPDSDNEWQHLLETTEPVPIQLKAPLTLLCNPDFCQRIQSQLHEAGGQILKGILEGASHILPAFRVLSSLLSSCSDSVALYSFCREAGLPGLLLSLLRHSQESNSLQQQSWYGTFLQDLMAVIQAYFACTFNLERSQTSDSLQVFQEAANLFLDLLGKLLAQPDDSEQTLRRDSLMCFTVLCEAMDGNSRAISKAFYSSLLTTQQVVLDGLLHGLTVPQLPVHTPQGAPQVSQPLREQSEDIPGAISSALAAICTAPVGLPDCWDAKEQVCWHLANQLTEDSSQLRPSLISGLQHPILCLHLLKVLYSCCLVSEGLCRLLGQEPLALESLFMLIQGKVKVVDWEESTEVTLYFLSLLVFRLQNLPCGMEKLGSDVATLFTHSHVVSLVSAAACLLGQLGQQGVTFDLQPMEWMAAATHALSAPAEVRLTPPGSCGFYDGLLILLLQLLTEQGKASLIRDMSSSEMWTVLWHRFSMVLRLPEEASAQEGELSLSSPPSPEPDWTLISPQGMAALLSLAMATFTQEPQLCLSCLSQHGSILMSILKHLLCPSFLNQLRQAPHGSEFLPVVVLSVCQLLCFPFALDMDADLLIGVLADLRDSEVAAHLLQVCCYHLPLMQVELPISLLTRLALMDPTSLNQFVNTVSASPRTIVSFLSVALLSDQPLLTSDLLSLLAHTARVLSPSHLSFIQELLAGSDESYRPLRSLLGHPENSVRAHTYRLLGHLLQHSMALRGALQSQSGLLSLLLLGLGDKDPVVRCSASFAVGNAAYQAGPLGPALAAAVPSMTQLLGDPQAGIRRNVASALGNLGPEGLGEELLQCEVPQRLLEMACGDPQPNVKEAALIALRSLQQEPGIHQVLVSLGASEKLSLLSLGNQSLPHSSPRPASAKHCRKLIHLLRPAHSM
UniProt P04183, whole entry: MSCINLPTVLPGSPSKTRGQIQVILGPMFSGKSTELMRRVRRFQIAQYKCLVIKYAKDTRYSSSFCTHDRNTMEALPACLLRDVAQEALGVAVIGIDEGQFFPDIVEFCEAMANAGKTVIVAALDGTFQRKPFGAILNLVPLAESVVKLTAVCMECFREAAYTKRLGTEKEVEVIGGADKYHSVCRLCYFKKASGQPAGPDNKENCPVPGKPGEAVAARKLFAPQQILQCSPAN

Legend:
Assay in all cases: KAT chemical proteomics
[1] = target: CAMKK2 (Homo sapiens, UniProt Q96RR4)
[2] = tested on: CCNH
[3] = target: CDC42BPA (Homo sapiens, UniProt Q5VT25)
[4] = target: CHEK1 (Homo sapiens, UniProt O14757)
[5] = target: CHEK2 (Homo sapiens, UniProt O96017)
[6] = target: CKB (Homo sapiens, UniProt P12277)
[7] = target: DAPK3 (Homo sapiens, UniProt O43293)
[8] = target: FES (Homo sapiens, UniProt P07332)
[9] = target: FGR (Homo sapiens, UniProt P09769)
[10] = target: FLT3 (Homo sapiens, UniProt P36888)
[11] = target: GSK3B (Homo sapiens, UniProt P49841)
[12] = target: HK1 (Homo sapiens, UniProt P19367)
[13] = target: IGF1R (Homo sapiens, UniProt P08069)
[14] = target: MAP2K1 (Homo sapiens, UniProt Q02750)
[15] = target: MAP2K4 (Homo sapiens, UniProt P45985)
[16] = target: MAP3K1 (Homo sapiens, UniProt Q13233)
[17] = target: MAP3K3 (Homo sapiens, UniProt Q99759)
[18] = target: MAP3K5 (Homo sapiens, UniProt Q99683)
[19] = target: MAP4K5 (Homo sapiens, UniProt Q9Y4K4)
[20] = target: MAPK15 (Homo sapiens, UniProt Q8TD08)
[21] = target: MAPK9 (Homo sapiens, UniProt P45984)
[22] = target: MAPKAPK5 (Homo sapiens, UniProt Q8IW41)
[23] = target: MAST3 (Homo sapiens, UniProt O60307)
[24] = tested on: MPP1
[25] = target: MYLK (Homo sapiens, UniProt Q15746)
[26] = target: NEK6 (Homo sapiens, UniProt Q9HC98)
[27] = target: PAK4 (Homo sapiens, UniProt O96013)
[28] = tested on: PHKA2
[29] = target: PRKCE (Homo sapiens, UniProt Q02156)
[30] = target: PRKG1 (Homo sapiens, UniProt Q13976)
[31] = target: PTK2 (Homo sapiens, UniProt Q05397)
[32] = target: PTK2B (Homo sapiens, UniProt Q14289)
[33] = target: ROCK1 (Homo sapiens, UniProt Q13464)
[34] = target: SLK (Homo sapiens, UniProt Q9H2G2)
[35] = target: STK17B (Homo sapiens, UniProt O94768)
[36] = target: STK25 (Homo sapiens, UniProt O00506)
[37] = target: STK33 (Homo sapiens, UniProt Q9BYT3)
[38] = target: STK36 (Homo sapiens, UniProt Q9NRP7)
[39] = target: TK1 (Homo sapiens, UniProt P04183)
[40] = tested on: TMEM11
[41] = tested on: TRIM27

Measured: RB50

Cc1nc(C(F)(F)F)c2c(C(N)=O)c(N)n(-c3c(C)ccc(O)c3C)c2n1 (single isomer, unassigned)
387 nM: [9]
1.1 µM: [2]
>50 µM: all other assays above
